The chains are these.
B1: F184 (peptide)
peptide: DDDKGSLDESFYDWFERQLGKKWLDQERAWLWCEISGRGCLS
modifications: the two parts are conjugated by POX2 (Pox = 8-amino-3,6-dioxaoctanoic acid; printed 'PDX2')
notes: 80 conjugated by POX
B2: F146 (peptide)
peptide: CHGSLDESFYDWFERQLGKK
modifications: printed with 'CHO' before GSLDESFYDWFERQLGKK; not explained (may be an N-terminal aldehyde group)

Chains of the proteins cited; added tags and fusions are not shown. Residues count along the entry.
UniProt P08069, 31-935: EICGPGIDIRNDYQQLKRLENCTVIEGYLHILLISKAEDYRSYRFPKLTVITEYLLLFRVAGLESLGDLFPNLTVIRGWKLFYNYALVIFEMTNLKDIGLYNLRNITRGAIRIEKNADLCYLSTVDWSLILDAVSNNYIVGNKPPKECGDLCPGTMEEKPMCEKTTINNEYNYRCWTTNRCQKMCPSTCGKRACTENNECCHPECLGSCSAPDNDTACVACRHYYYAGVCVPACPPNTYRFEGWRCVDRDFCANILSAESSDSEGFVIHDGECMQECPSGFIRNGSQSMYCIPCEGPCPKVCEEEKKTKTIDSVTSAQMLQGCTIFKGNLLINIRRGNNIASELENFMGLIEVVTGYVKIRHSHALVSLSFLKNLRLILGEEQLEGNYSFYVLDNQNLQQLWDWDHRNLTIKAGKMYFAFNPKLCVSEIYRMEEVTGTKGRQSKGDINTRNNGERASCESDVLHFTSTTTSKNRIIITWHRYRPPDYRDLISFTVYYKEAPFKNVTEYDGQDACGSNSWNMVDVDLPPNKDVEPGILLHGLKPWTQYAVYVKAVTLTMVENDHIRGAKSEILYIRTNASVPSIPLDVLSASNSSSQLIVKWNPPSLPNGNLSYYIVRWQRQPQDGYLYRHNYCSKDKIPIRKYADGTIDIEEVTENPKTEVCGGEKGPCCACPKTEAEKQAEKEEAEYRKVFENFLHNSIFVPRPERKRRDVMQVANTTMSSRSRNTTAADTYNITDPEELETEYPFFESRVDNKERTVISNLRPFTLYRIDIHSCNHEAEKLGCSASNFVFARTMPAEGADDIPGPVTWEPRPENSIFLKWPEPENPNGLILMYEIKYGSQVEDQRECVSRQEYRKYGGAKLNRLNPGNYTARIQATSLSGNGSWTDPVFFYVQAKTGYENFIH
UniProt P08069, 31-1367 limits assumed: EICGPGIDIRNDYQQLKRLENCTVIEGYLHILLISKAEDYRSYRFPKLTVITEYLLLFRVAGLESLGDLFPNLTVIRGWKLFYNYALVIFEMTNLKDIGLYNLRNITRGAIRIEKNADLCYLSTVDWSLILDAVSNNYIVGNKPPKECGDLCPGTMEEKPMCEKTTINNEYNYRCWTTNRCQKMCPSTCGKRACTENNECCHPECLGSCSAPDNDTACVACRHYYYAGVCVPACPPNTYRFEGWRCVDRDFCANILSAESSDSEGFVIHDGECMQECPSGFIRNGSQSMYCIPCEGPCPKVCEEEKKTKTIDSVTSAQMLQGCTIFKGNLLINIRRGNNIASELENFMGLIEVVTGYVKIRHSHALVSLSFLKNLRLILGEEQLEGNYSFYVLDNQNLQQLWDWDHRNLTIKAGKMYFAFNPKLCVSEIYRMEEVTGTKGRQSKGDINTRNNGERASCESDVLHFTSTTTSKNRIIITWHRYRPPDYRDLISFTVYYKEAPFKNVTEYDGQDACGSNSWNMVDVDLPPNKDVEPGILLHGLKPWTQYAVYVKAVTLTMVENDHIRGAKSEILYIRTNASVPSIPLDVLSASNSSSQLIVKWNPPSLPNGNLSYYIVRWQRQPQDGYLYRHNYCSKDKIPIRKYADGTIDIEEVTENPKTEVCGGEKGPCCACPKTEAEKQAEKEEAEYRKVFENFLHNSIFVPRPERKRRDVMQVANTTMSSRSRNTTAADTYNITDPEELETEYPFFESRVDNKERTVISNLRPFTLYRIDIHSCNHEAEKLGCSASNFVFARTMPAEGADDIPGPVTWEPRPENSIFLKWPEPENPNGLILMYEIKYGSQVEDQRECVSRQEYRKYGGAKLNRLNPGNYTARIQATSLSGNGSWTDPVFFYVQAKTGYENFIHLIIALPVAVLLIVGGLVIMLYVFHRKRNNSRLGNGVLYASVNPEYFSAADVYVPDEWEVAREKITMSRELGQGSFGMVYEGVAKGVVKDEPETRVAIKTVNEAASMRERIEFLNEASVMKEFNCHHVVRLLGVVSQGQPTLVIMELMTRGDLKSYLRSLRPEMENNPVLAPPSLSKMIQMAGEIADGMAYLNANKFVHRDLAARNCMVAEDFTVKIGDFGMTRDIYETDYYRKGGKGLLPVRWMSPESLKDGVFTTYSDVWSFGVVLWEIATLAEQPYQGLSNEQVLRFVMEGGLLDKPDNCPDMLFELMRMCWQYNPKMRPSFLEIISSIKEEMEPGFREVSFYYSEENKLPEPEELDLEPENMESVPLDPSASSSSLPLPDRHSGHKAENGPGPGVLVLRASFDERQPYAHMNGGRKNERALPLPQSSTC

The target in one assay is T1, His-tagged soluble recombinant human IGF-IR (srhIGF-1R-his; R&D systems) (human, UniProt P08069 31-935).
T1 construct: extracellular domain; Bought protein; also called extra-cellular domain of IGF-1R; not shown: His tag
Briefly: AlphaScreen competition with biotinylated hIGF-1 on srhIGF-1R-his. How it is done:
Binding Assays. […] Detection of the receptor ligand interaction was measured in an amplified luminescent proximity homogeneous assay (ALPHAScreen; BioSignal-Packard, Montreal). The assay was performed in 384-well Nunc™ white polystyrene microplates (Nalge Nunc International, Naperville, Ill.) with a final volume of 40 μL. […] Each concentration of competitor was assayed in duplicate. […] The second step of the assay was to add acceptor beads and the incubation continued for 0.5 hr. The final step was to add donor beads and the incubation continued for an additional 1 hr. […] Primary data were background corrected, normalized to buffer controls and then expressed as % Specific Binding. The data were fit to a four-parameter non-linear regression analysis (y=min+(max-min)/(1+10̂((log IC₅₀-x)*Hillslope))), which was used to determine IC₅₀ values. The Z′-factor for this assay is greater than 0.7 (Z′=1-(3σ++3σ−)/|μ+−μ−|) and the signal-to-background (SB) ratio was between 40 and 70.
On the technique in general: In Alpha technology, singlet oxygen from a donor bead excites a nearby acceptor bead.
Take ESDVWAQPQRRNDWPGYHWLSR (N-terminal 'Ac-' as printed) [F288]: the concentration for half-maximal inhibition (IC50) (usually the concentration needed to halve the response being measured) is 0.32 µM. With SFYSCLESLVNGPAEKSRGQWDGCRK (also called RP33/F250; RP33) [F250], the IC50 amounted to 0.078 µM. Same read-out and setting: under ESYGDCRDRPCGDAPNFYDWFVQQASE [F270] stands 0.036 µM; under GGVGSGSRDESFYDWFERQLA [F275], 4.3 µM.

The target of a further assay is T2, human insulin-like growth factor-1 receptor (HIGF-1R) (human, UniProt P08069 31-1367).
T2 construct: Detergent-solubilised receptor purified on WGA-agarose; also called HIGFIR
Briefly: 125I-IGF-1 displacement, SPA-assay. The source says:
In certain cases, a scintillation proximity assay (SPA assay) was used to determine IGF-1R affinity.
For the molecule EEDDQNWEGYNWFNEQLGK [F261], the Kd – broadly, the free concentration of one partner at which half of the binding sites on the other are occupied at equilibrium, for simple one-to-one binding – is 2.4 µM. As to IFYSCLASLLHGGPQRNTGPWERCRR [F141], the equilibrium dissociation constant (Kd) amounted to 0.24 µM. In turn, B1 registered a dissociation constant (Kd) of 2.8 µM. This Kd lies about 12-fold higher than the previous one.

For the molecule EDDDQNWEGYEWFERQLGK [F262], the dissociation constant (Kd) is 2.3 µM. This Kd and that of the molecule before are within 1.5-fold of each other.

On to TFYSCLASLLTGPREQNRGAWERCRR [F142], for which the dissociation constant Kd was found to be 0.035 µM. Consider ESFYSCLDSLVTGTPQEDRGPWERCRE [F214], for which the Kd stood at 12 µM.

Take DYKDCWARPCGDAANFYDWFVQQASKK [F178]: the Kd was found to be 0.0053 µM. Compared with the last molecule, the Kd is about 2300-fold lower. In turn, GVDEVRAWLWCQISGLGCES [F114] showed a Kd of 0.071 µM. Still for that read-out and setting: then SFYSCLGSLLTGAPQPIRGAWDRCR [F144], with 0.17 µM; and ESFYSCLASLVTGIPRSNSGTQVFCREE [F227], with 0.33 µM. On the same count and under the same terms, then SFYSCLESLVNGGAERSDGQWEGCR [F113], with 0.84 µM. SFYSCLESLVNGPAEKSRGQWDGCRGSLDESFYDWFERQLG [F237] registered an equilibrium dissociation constant (Kd) of 0.43 µM.

In the next assay the target is T2, human insulin-like growth factor-1 …. Put plainly: 125I-IGF-1 displacement, PEG-assay. On the procedure: IGF-1R affinity studies were generally performed as follows. […] The day before harvest cells were moved to serum free conditions and before harvest the cells were rinsed with and ice cold PBS solution. The cells were solubilized in cold lysis buffer (4 ml lysis buffer/1×10⁸ cells); vortexed vigorously to lysis in lysis buffer (50 mM Hepes (pH 8.0); 150 mM NaCl; 1% Triton X-100; 2 mM EDTA; 10 μg/mlaprotinin; 0.5 mM PEFABLOC (Roche)); and the lysate centrifuged at 4° C., 20000 rpm, for 15 minutes. […] In some cases, human insulin receptor (HIR) affinity for select test peptides was similarly measured.
With VEGRGLFYDLLRQLLARRQNG (N-terminal biotin (Biotin-), stands before F237, may be F236) [F238 (row r195, SEQ ID NO 207)], the dissociation constant (Kd) was determined as 0.28 µM.

ECDFYCALSRLSGQPRDRMPNYPGTSE [F204] gave a Kd of 2.1 µM. EFLTRLLERLGLSWERGEAGGPYAQAE [F175] yielded a Kd of 13 µM. This Kd is about 6.2-fold higher than that of the molecule before.

ERRVACTQADGLLCESDPLKALLSYFE (this is the first) [F200 (row r140, SEQ ID NO 86)] gave a dissociation constant (Kd) of 0.054 µM. The same measure, in the same setting: then SACQFDCHENFYDWFARQVSGGAAYG [F161], with 1.7 µM; and EFFYDCLAALLQGVARYHDLCAVEITE [F135], with 1.3 µM; and ETFYACLEFLLSGNPEGNSGPWDRCREE [F226], with 1.7 µM. For the molecule EEDDQNWEGYNWFNEQLGK [F261], the Kd came out at 0.71 µM. Same read-out and setting: then IFYSCLASLLHGGPQRNTGPWERCRR [F141], with 0.31 µM; and B2, with 1.6 µM. Regarding WLDQERAWLWCEISGRGCLSDDDKGSLDESFYDWFERQLG [F107], the affinity, expressed as Kd, was 1.4 µM. Still for that read-out and setting: under ELQGFCELLATVTGVTGLGCLDYQPIE [F202] stands 25 µM; under IWIACLDELLRGQVWSSCRRRAPIG [F166], 1.1 µM.

Consider DDDKGSLDESFYDWFERQLGKKWLDQERAWLWCEISGRGCLS [F154], for which the Kd turned out to be 2.4 µM. With GSLDESFYDWFERQLGWLDQERAWLWCEISGRGCLS [F105], the affinity, expressed as Kd, was 12 µM. Consider VGRASGFPENFYDWFGRQLSLQSGEQ [F160], for which the equilibrium dissociation constant (Kd) is 6.7 µM. This Kd is about 1.8-fold lower than that of the molecule before. EDDDQNWEGYEWFERQLGK [F262]: the dissociation constant Kd is 0.75 µM.

Regarding ERDDQDWEGYEWFEEQVGK [F260], binding was characterised by a dissociation constant (Kd) of 1.8 µM. Turning to DMGDVECEDPFYDWFACQVRDTEFDE [F115], the affinity, expressed as Kd, was 15 µM. Against the preceding molecule, the Kd is about 8.3-fold higher. For the molecule ESFYSCLDSLVTGTPQEDRGPWERCRE [F214], the equilibrium dissociation constant (Kd) was 0.44 µM. Molecule EYRQECACSVGAVGFLCGLACLARSGE [F206] yielded a Kd of 16 µM.

Turning to GVDEVRAWLWCQISGLGCES [F114], the Kd was determined as 0.056 µM. Turning to SFYSCLGSLLTGAPQPIRGAWDRCR [F144], binding was put at a Kd of 0.21 µM. Same read-out and setting: under ENRSGELWEGYGWFNMQVRGE [F212] stands 21 µM. Take SAAQLFFQESFYDWFLRQVAESSQPN [F162]: the equilibrium dissociation constant (Kd) came to 2.1 µM. In the case of EERATPRWRGYEWFDAQVERE [F211], the Kd turned out to be 11 µM. For the molecule VEGRGLFYDLLRQLLARRQNG (N-terminal acetyl (Ac-)) [P238 (row r193, SEQ ID NO 203)], the equilibrium dissociation constant (Kd) was 0.32 µM. The molecule ESFYSCLASLVTGIPRSNSGTQVFCREE [F227] returned a Kd of 0.14 µM. This Kd is about 2.3-fold lower than that of the molecule before.

Take ESFYSCLASLWSGTGGSSRGRWEGCRE [F163]: the Kd amounted to 2.7 µM. As for GFREGNFYEWFQAQVT [F102], binding was put at a Kd of 8.3 µM. The molecule GSLDESFYRWFERQLEGGSGGSGLEQERAGTWCENSGRGCLH [F156] gave a Kd of 0.31 µM. The same measure, in the same setting: under SFYSCLESLVNGGAERSDGQWEGCR [F113] stands 0.56 µM; under SFYSCLESLVNGPAEKSRGQWDGCRGSLDESFYDWFERQLG [F237], 0.37 µM.

With WLDQERAWLWCEISGRGCLSGSLDESFYDWFERQLG [F106], the Kd came out at 1.4 µM. Molecule CWARPCGDAANFYDWFVQQAS (also called C1; D112) [F103] came in with a Kd of 2.3 µM.

WLGQERDWEWCQVAGRGCLGGGSGGSGSLDDSFYGWFVRQLG [F155] registered a Kd of 1.3 µM.

For another assay, the target named is T3, Human IGF-1R (HIGF-1R), purified from BHK cells stably transfected with IGF-1R cDNA (human, UniProt P08069 31-1367).
T3 construct: Receptor preparation of the PEG, SPA and kinase assays; also called HIGFIR; human insulin-like growth factor-1 receptor
Briefly: competition with 125I-IGF-1 on purified HIGF-1R (IGF-1 displacement).
Regarding RQWDCRGRPCGDAESFYEWFDQQRS [F264], the half-inhibitory concentration (IC50) was 0.044 µM. In the case of TGAPQPNRGPLDRCRGSLDECFYGWFERQLL [F273], the IC50 is 0.76 µM. TLNPRGPWEGSRGSMDDSFYRWFERQLE [F272] registered an IC50 of 1.5 µM.

TFYSGPVSLLTGTPRTNRSAWERGRGSLDDSFYDWFERQLSR [F274]: the IC50 was determined as 1.4 µM.

The record behind these values is US20110039779A1 (published 2011).
